Assay results reported in patent US9938245B2 (THE TRUSTEES OF COLUMBIA UNIVERSITY IN THE CITY OF NEW YORK, priority 2014, dated 2018).

System: lipid peroxides
Test: Lipid peroxide detection using BODIPY-C11
Assay type: cell-based
Details: BJeLR and other BJ-derived cells

SMILES: O=[As]c1ccccc1 (stereo not shown)
- generation of lipid peroxides (BODIPY-C11): showed weak generation of lipid peroxides
